Chains of the proteins cited; added tags and fusions are not shown.
UniProt P29371, whole entry: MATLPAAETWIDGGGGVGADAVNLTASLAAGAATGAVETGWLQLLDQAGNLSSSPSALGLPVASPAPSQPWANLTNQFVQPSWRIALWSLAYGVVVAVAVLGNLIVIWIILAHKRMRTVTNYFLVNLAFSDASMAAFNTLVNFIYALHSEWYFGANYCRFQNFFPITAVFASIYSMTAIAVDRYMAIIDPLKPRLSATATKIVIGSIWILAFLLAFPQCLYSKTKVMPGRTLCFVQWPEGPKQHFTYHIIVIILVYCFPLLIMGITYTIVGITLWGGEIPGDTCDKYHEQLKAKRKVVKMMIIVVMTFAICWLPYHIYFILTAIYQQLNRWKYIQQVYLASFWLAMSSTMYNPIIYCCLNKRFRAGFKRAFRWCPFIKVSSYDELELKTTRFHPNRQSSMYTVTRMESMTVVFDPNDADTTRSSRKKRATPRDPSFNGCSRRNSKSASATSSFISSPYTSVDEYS
UniProt P30098, whole entry, looked up: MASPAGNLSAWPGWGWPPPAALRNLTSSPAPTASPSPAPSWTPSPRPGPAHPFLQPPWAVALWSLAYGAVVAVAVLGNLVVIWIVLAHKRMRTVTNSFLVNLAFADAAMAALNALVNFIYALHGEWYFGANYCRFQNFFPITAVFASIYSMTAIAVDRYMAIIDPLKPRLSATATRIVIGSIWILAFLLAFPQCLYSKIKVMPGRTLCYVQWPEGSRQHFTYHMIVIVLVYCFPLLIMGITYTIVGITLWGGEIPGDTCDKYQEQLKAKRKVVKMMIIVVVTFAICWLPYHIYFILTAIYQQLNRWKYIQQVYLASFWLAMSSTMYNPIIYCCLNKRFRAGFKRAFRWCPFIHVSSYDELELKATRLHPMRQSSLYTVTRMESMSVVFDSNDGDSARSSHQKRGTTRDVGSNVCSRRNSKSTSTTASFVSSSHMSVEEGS

According to ChEMBL document CHEMBL1154606, “Identification of a critical residue in the transmembrane domain 2 of tachykinin neurokinin 3 receptor affecting the dissociation kinetics and antagonism mode of osanetant (SR 142801) and piperidine-based structures” (J Med Chem, 2009):

Key:
Neuromedin-K receptor [1] = molecular target: T1, Neuromedin-K receptor (Homo sapiens, UniProt P29371); assay: Antagonist activity at wild type human NK3 receptor expressed in HEK293 cells assessed as inhibition of [MePhe7]NKB-induced accumulation of [3H]inositol phosphate; format: functional, cell-based; details: read-out: pA2 (converted)
In short: (§1)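 HEK293 cells transiently transfected with NK3 receptor, labeled with myo-[³H]-inositol and assayed 48 h post-transfection in HBSS/HEPES pH 7.4 with 8 mM LiCl. Fixed antagonist concentrations were preincubated 20 min at 37 °C, then [MePhe⁷]NKB (0.1 nM–10 μM) was added for 45 min at 37 °C. [³H]IP was captured on yttrium silicate beads. Agonist EC50 shifts gave dose ratios for Schild regression. Six curves from three transfections.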

Neuromedin-K receptor [2] = molecular target: T2, Neuromedin-K receptor (Cavia porcellus, UniProt P30098); assay: Antagonist activity at […] guinea pig NK3 receptor A1142.58T mutant expressed in HEK293 cells assessed as inhibition of [MePhe7]NKB-induced accumulation of [3H]inositol phosphate; format: functional, cell-based; in short: as §1
Neuromedin-K receptor [3] = molecular target: T1, Neuromedin-K receptor; assay: Apparent binding affinity to human NK3 receptor expressed in HEK293 cells; format: cell-based
Neuromedin-K receptor [4] = molecular target: T1, Neuromedin-K receptor; assay: Equilibrium binding affinity to human NK3 receptor expressed in HEK293 cells; format: cell-based
Neuromedin-K receptor [5] = molecular target: T2, Neuromedin-K receptor; assay: Apparent binding affinity to guinea pig NK3 receptor expressed in HEK293 cells; format: cell-based
Neuromedin-K receptor [6] = molecular target: T2, Neuromedin-K receptor; assay: Equilibrium binding affinity to guinea pig NK3 receptor expressed in HEK293 cells; format: cell-based

Kb (Neuromedin-K receptor [1]): 18.6 nM | pA2 (Neuromedin-K receptor [2]): 8.5 | Kd (Neuromedin-K receptor [3]): 0.22 nM | Kd (Neuromedin-K receptor [4]): 0.2 nM | Kd (Neuromedin-K receptor [5]): 0.08 nM | Kd (Neuromedin-K receptor [6]): 0.15 nM
SMILES: CC(=O)N(C)C1(c2ccccc2)CCN(CCC[C@]2(c3ccc(Cl)c(Cl)c3)CCCN(C(=O)c3ccccc3)C2)CC1 [OSANETANT]
